Patent US12692268B2 (priority 2020, dated 2026)

Amino acid sequences for entries named in this document (tags omitted).
UniProt P53779, whole entry: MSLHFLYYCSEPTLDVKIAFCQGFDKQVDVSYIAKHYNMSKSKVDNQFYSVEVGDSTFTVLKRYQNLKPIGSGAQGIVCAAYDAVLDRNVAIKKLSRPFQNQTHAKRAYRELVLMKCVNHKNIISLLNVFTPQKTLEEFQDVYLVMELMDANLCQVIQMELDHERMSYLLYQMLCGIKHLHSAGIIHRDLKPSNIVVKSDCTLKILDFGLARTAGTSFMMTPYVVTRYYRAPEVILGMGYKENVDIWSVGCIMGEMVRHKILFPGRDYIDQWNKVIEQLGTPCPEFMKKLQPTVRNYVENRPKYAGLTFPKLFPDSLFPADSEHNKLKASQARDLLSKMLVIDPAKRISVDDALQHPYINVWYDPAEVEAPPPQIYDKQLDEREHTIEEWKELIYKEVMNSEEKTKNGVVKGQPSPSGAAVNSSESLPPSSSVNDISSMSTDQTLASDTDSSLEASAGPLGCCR

Biological target: JNK3 (Homo sapiens, UniProt P53779)
Settings: JNK3 enzyme activity, Table 2

In the case of `NC(=O)N1Cc2nc(-c3ccc4c(c3)CCO4)n(-c3ccnc(N[C@H]4CCCN(C(=O)C5CC5)C4)n3)c2C1`, the IC50 is reported as 30 to 100 nM.
